The values below come from article PMC8624523, “Novel GPR120 Agonists with Improved Pharmacokinetic Profiles for the Treatment of Type 2 Diabetes” (Molecules, 2021).

One test has as its system hGPR120. Set-up: method as in PMID 22519963, PMID 29100735, PMID 28642104, PMID 28947942, PMID 28374589. As to conditions: cited from earlier work.
In a further test the test system is DIO mice. Put plainly: Anti-hyperglycemic effects (oGTT) in diet-induced obese (DIO) mice. Set-up: species or system C57BL/6 mice. As to conditions: mouse, in vivo, 20 mg/kg. An excerpt: After 1 week of adaptation, male C57BL/6 mice weighing 18–22 g, were fed a high-fat diet (45% calories from fat, from Mediscience Ltd., Yangzhou, China) ad libitum for an additional 8 weeks to induce insulin resistance. […] Blood samples were collected and measured in accordance with the oral glucose tolerance test in normal ICR mice.

A word on the EC50: it is the concentration at which the effect is half-maximal. `[2H]C([2H])(CC(=O)O)c1ccc(OCc2cc(F)ccc2-c2ccc(C)cc2)cc1` [Compound 2]: the concentration for a half-maximal effect (EC50) in the test on hGPR120 is 63.1 nM.
Take `Cc1ccc(-c2ccc(F)cc2COc2ccc(CCC(=O)O)cc2)cc1` [TUG-891, reference compound]: the “insulin levels at 30 min after oral administration of glucose” value in the test on DIO mice is reported as “significantly increased insulin levels”. For the same molecule, the EC50 with hGPR120 is 44 nM.
